The text below walks through data of ChEMBL document CHEMBL4837261, “Optimization of TopoIV Potency, ADMET Properties, and hERG Inhibition of 5-Amino-1,3-dioxane-Linked Novel Bacterial Topoisomerase Inhibitors: Identification of a Lead with In Vivo Efficacy against MRSA” (J Med Chem, 2021).

Each structure is given as a SMILES string. Bounds are passed on as bounds.

Assay [1] relates to Staphylococcus aureus. Put plainly: Selectivity index, ratio of IC50 for inhibition of Staphylococcus aureus topoisomerase IV decatenation activity to IC50 for inhibition of Staphylococcus aureus DNA gyrase supercoiling activity. In outline: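 Both IC50s were measured in gel-based assays with S. aureus enzymes: supercoiling inhibition for DNA gyrase and decatenation inhibition for TopoIV. The ratio is TopoIV IC50 divided by gyrase IC50.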

Assay [2] relates to Staphylococcus aureus. Put plainly: Selectivity ratio of IC50 for inhibition of Staphylococcus aureus Gyrase D83N mutant to IC50 for inhibition of Staphylococcus aureus Gyrase. In outline:
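Ratio of two IC50s: the IC50 from the D83N mutant gyrase supercoiling assay (commercial kit) divided by the IC50 from the gel-based wild-type S. aureus gyrase supercoiling assay.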

Take `COc1ccc2ncc(F)c(C[C@H](O)[C@H]3OC[C@H](NCc4ccc(C)cc4)CO3)c2n1`: the Ratio IC50 was found to be 17 with Staphylococcus aureus [1] and 41 in the assay on Staphylococcus aureus [2]. `COc1ccc2ncc(=O)n(CC(O)[C@H]3OC[C@H](NCc4ccc5c(c4)OCCO5)CO3)c2c1` (mixture of isomers): the Ratio IC50 in the assay with Staphylococcus aureus [1] is 210. As for `COc1ccc2ncc(F)c(C[C@H](O)[C@H]3OC[C@H](NCc4ccc(Cl)c(Cl)c4)CO3)c2n1`, the Ratio IC50 with Staphylococcus aureus [1] is 7; with Staphylococcus aureus [2] it was 34.

Turning to `COc1ccc2ncc(F)c(C(O)C[C@H]3OC[C@H](NCc4ccc5c(n4)NC(=O)CO5)CO3)c2c1` (mixture of isomers), the Ratio IC50 with Staphylococcus aureus [1] is 4.9; with Staphylococcus aureus [2], more than 388.

For `COc1ccc2ncc(=O)n(CC(O)[C@H]3OC[C@H](NCc4cc5c(cn4)OCCO5)CO3)c2n1` (mixture of isomers), in the assay with Staphylococcus aureus [1], the Ratio IC50 is 165.

For `COc1ccc2ncc(F)c(C(O)C[C@H]3OC[C@H](NCc4ccc5c(c4)OCCO5)CO3)c2n1` (mixture of isomers), in the assay on Staphylococcus aureus [1], the Ratio IC50 was 145.

For `COc1ccc2ncc(F)c(C[C@H](O)[C@H]3OC[C@H](NCc4cc5c(cn4)OCS5)CO3)c2n1`, the Ratio IC50 in the assay on Staphylococcus aureus [1] came to 4.3; in the assay on Staphylococcus aureus [2] it was 59. Take `COc1ccc2ncc(F)c(C(O)C[C@H]3OC[C@H](NCc4ccc(C)cc4)CO3)c2c1` (mixture of isomers): the Ratio IC50 in the assay on Staphylococcus aureus [1] turned out to be 122. On the same count and under the same terms, the same measure for `COc1ccc2ncc(F)c(C(O)C[C@H]3OC[C@H](NCc4cc5c(nn4)OCCS5)CO3)c2c1` (mixture of isomers): 30. In the case of `COc1ccc2ncc(F)c(C[C@H](O)[C@H]3OC[C@H](NCc4cc5c(nn4)OCCO5)CO3)c2n1`, the Ratio IC50 with Staphylococcus aureus [1] was 15; in the assay with Staphylococcus aureus [2], 146.

As to `COc1ccc2ncc(F)c(C(O)C[C@H]3OC[C@H](NCc4cc5c(cn4)OCCO5)CO3)c2n1` (mixture of isomers), the Ratio IC50 in the assay with Staphylococcus aureus [1] is 55.

Consider `COc1ccc2ncc(F)c(C(O)C[C@H]3OC[C@H](NCc4ccc5c(n4)NC(=O)CS5)CO3)c2c1` (mixture of isomers), for which the Ratio IC50 in the assay on Staphylococcus aureus [1] is 4.6. On the same count and under the same terms, for `COc1ccc2ncc(F)c(C(O)C[C@H]3OC[C@H](NCc4ccc5c(c4)OCCO5)CO3)c2c1` (mixture of isomers) the value was 85. As to `COc1ccc2ccc(F)c(C[C@H](O)[C@H]3OC[C@H](NCc4ccc5c(n4)NC(=O)CO5)CO3)c2n1`, the results for the Ratio IC50 with Staphylococcus aureus [1] and in the assay on Staphylococcus aureus [2] were 10 and 723, respectively. Consider `COc1ccc2ncc(F)c(C(O)C[C@H]3OC[C@H](NCc4ccc5c(n4)NC(=O)CS5)CO3)c2n1` (mixture of isomers), for which, in the assay on Staphylococcus aureus [1], the Ratio IC50 was 52. Same read-out and setting: for `COc1ccc2ncc(F)c(C(O)C[C@H]3OC[C@H](NCc4cc5c(cn4)OCCO5)CO3)c2c1` (mixture of isomers) the value was 23. With `COc1ccc2ncc(F)c(C[C@H](O)[C@H]3OC[C@H](NCc4ccc5c(n4)NC(=O)CO5)CO3)c2c1`, the values for the Ratio IC50 with Staphylococcus aureus [1] and in the assay with Staphylococcus aureus [2] were 15 and 59, respectively. On the same counts, the results for `COc1ccc2ncc(F)c(C[C@H](O)[C@H]3OC[C@H](NCc4cc5c(cn4)OCCC5)CO3)c2n1` are 9.3 and 98.

For `COc1ccc2ncc(F)c(C[C@H](O)[C@H]3OC[C@H](NCc4ccc5c(c4)OCCO5)CO3)c2n1`, the Ratio IC50 stood at 6.3 in the assay on Staphylococcus aureus [1] and 45 with Staphylococcus aureus [2]. With `COc1ccc2ncc(F)c(C(O)C[C@H]3OC[C@H](NCc4ccc(Cl)c(Cl)c4)CO3)c2c1` (mixture of isomers), in the assay on Staphylococcus aureus [1], the Ratio IC50 is 51. As to `COc1ccc2ncc(F)c(C[C@H](O)[C@H]3OC[C@H](NCc4cc5c(nn4)OCCS5)CO3)c2n1`, the Ratio IC50 in the assay on Staphylococcus aureus [1] was 16; in the assay on Staphylococcus aureus [2], 69. For `COc1ccc2ncc(F)c(C[C@H](O)[C@H]3OC[C@H](NCc4cc5c(cn4)OCCO5)CO3)c2n1` the same measures were 34 and 324. As for `COc1ccc2ncc(F)c(C[C@H](O)[C@H]3OC[C@H](NCc4cc5c(cn4)SCC(=O)N5)CO3)c2n1`, the Ratio IC50 was 2 in the assay on Staphylococcus aureus [1] and 398 in the assay on Staphylococcus aureus [2].
